Data from patent publication US20260384424A1, “HETEROCYCLIC COMPOUND” (published 2026).

By UniProt entry, the sequences of proteins in these tests, tags left out. Residues count along the entry.
UniProt O75116, whole entry: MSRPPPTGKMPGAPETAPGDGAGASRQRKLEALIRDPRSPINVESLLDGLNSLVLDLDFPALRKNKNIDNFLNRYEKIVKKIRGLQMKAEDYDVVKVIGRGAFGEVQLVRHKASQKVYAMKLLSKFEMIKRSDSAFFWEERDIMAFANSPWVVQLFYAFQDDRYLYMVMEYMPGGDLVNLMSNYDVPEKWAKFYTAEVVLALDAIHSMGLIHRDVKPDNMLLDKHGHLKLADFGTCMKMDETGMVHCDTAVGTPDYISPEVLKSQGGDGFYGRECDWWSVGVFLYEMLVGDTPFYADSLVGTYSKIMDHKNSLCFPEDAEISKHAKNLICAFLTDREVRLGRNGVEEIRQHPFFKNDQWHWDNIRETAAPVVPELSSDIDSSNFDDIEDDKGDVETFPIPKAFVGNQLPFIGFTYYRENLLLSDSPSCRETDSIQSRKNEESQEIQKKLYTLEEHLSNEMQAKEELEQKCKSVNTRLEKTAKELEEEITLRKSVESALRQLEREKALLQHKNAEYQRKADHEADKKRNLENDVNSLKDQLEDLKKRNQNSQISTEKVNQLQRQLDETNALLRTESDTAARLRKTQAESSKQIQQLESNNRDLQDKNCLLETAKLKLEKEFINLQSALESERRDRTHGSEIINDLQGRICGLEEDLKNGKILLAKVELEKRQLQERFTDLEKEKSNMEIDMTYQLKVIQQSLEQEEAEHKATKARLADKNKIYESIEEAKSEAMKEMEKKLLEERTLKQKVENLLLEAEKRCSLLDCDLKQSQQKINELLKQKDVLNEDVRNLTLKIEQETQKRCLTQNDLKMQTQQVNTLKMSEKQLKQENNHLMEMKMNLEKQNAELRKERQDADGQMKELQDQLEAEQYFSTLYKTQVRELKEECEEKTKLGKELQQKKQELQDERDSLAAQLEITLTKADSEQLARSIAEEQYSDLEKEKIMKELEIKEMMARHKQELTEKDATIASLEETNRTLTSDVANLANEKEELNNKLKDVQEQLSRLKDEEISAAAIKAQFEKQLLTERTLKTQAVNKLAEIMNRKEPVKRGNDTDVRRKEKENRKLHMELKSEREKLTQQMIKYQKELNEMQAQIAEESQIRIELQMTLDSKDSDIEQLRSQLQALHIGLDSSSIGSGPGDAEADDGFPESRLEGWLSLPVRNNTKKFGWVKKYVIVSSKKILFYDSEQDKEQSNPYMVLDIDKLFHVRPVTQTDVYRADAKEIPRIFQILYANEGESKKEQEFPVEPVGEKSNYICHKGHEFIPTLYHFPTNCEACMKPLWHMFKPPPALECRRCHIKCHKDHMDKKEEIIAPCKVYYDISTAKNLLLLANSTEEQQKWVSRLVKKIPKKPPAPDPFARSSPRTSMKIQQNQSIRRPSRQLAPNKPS
UniProt O75116, 1-553 limits assumed: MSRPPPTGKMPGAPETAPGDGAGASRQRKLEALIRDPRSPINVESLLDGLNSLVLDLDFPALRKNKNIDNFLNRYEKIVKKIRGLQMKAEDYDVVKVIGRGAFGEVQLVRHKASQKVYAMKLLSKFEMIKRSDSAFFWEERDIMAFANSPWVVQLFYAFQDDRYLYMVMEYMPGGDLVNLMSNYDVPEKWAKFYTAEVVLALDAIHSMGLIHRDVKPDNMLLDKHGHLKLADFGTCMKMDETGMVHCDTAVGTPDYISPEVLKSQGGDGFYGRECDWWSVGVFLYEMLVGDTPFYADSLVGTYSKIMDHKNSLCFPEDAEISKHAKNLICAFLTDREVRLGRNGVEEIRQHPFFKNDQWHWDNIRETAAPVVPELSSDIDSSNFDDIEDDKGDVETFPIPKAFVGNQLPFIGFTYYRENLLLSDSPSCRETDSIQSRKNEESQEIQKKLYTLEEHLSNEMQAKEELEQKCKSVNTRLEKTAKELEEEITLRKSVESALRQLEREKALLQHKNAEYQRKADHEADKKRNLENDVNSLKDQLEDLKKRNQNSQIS

target: T1, ROCK2 protein (Homo sapiens, UniProt O75116); assay: ROCK2 kinase inhibitory activity, mobility shift assay (MSA); settings: evaluation concentration 0.03 μm
Experimental: The ROCK2 kinase inhibitory activity was measured using a mobility shift assay (MSA) provided by Carna Biosciences, Inc.
The test compound was dissolved in DMSO and further diluted with DMSO to prepare a solution having a concentration 100 times the evaluation concentration. The solution was further diluted 25 times with an assay buffer (20 mmol/L HEPES, 0.01% Triton (registered trademark) X-100, 1 mmol/L DTT, pH 7.5) to obtain a test compound solution.
The human ROCK2 kinase was expressed by fusing the catalytic domain (1 to 553 amino acids of Accession No. NP_004841.2) with GST at the N-terminus using the baculovirus expression system. GST-ROCK2 was purified by glutathione sepharose chromatography.
A 4-fold concentration substrate (LIMKtide, 1000 nmol/L)/ATP (5 μmol/L)/metal solution (Mg, 5 mmol/L) was prepared with kit buffer (20 mmol/L HEPES, 0.01% Triton (registered trademark) X-100, 5 mmol/L DTT, pH 7.5). A 2-fold concentration kinase solution was prepared with assay buffer. 5 μL of a 4-fold concentration test compound solution, 5 μL of a 4-fold concentration substrate/ATP/metal solution, and 10 μL of a 2-fold concentration kinase solution were mixed in a well of a polypropylene 384 well plate, and the mixture was reacted at room temperature for 1 hour. 70 μL of termination buffer (127 mmol/L HEPES, 0.01% Triton (registered trademark) X-100, 26.7 mmol/L EDTA-2Na, 1% DMSO, pH 7.5) was added to stop the reaction. The substrate peptide and the phosphorylated peptide in the reaction solution were separated and quantified using a LabChip (trademark) system (Perkin Elmer).
The kinase reaction was evaluated by the product ratio (P/(P+S)) calculated from the substrate peptide peak height (S) and the phosphorylated peptide peak height (P).
The average signal of the control well including all the reaction components was set to 0% suppression, the average signal of the background well (no enzyme added) was set to 100% suppression, and the inhibition rate was calculated from the average signal of the test compound test well.
The ROCK2 inhibition rate and the evaluation concentration of the test compound are shown in Table 4-1, and the IC50 value of the inhibitory activity is shown in Table 4-2. The ROCK2 inhibition rate in Table 4-1 is represented by A Z 75%, 75%>B≥50%, 50%>C≥25%, and D<25%, and the IC50 value in Table 4-2 is represented by A<0.03 μM, 0.03 μM≤B<0.3 μM, 0.3 μM≤C<3 μM, and 3 μM≤D<10 μM.

Structure (SMILES)	ROCK2 inhibition rate
COC[C@H]1CN[C@H](C)CN1CC(=O)N1CC(C)(C)c2nc(CN(C)CCOCCNC[C@@H](C(=O)Nc3ccc4cnccc4c3)c3ccccc3)c(Cc3ccc(F)cc3)cc21	B (75%>B≥50%)
COC[C@H]1CN[C@H](C)CN1CC(=O)N1CC(C)(C)c2ncc(Cc3ccccc3OCCOCCOCCOCCNC[C@@H](C(=O)Nc3ccc4cnccc4c3)c3ccccc3)cc21	C (50%>C≥25%)
C[C@@H]1CN(CC(=O)N2CC(C)(C)c3ncc(Cc4ccc(F)cc4)cc32)[C@@H](CN(C)CCOCCOCCNC[C@@H](C(=O)Nc2ccc3cnccc3c2)c2ccccc2)CN1	B (75%>B≥50%)

same assay, conditions: evaluation concentration 1 μm

Structure (SMILES)	ROCK2 inhibition rate
COC[C@H]1CN[C@H](C)CN1CC(=O)N1CC(C)(C)c2ncc(Cc3cccc(OCCOCCOCCOCCOCCOCCOCCOCCN[C@H](Cc4cccc(F)c4)C(=O)Nc4ccc(-c5ccncc5)cc4)c3)cc21	D (D<25%)
COC[C@H]1CN[C@H](C)CN1CC(=O)N1CC(C)(C)c2nc(CN(C)CCOCCOCCOCCN[C@H](Cc3cccc(F)c3)C(=O)Nc3ccc(-c4ccncc4)cc3)c(Cc3ccc(F)cc3)cc21	C (50%>C≥25%)
C[C@@H]1CN(CC(=O)N2CC(C)(C)c3ncc(Cc4ccc(F)cc4)cc32)[C@@H](CN(C)CCOCCOCCN[C@H](Cc2cccc(F)c2)C(=O)Nc2ccc(-c3ccncc3)cc2)CN1	C (50%>C≥25%)

same assay, conditions: evaluation concentration 10 μm

Structure (SMILES)	ROCK2 inhibition rate
COC[C@H]1CN[C@H](C)CN1CC(=O)N1CC(C)(C)c2ncc(Cc3cccc(OCCOCCOCCOCCOCCOCCOCCN[C@H](C)c4ccc(C(=O)Nc5ccncc5)cc4)c3)cc21	A (A Z 75%)
C[C@@H]1CN(CC(=O)N2CC(C)(C)c3ncc(Cc4ccc(F)cc4)cc32)[C@@H](CN(C)CCOCCOCCOCCN[C@H](C)c2ccc(C(=O)Nc3ccncc3)cc2)CN1	A (A Z 75%)
COC[C@H]1CN[C@H](C)CN1CC(=O)N1CC(C)(C)c2nc(CN(C)CCOCCOCCOCCN[C@H](C)c3ccc(C(=O)Nc4ccncc4)cc3)c(Cc3ccc(F)cc3)cc21	A (A Z 75%)

target: T1, ROCK2 protein; assay: Degradation inducing activity of ROCK2 protein in HUVEC cells, Western Blotting; settings: at 1 μm, 24 hours
Experimental: In vitro degradation inducing activity of ROCK2 protein of compounds of Examples was evaluated by Western Blotting (WB).
By a test compound, 10 mM DMSO solution was prepared, which was used as a 10 μM test compound solution. Further, the solution was diluted 10-fold with DMSO to prepare a 1 mM solution, which was used as a 1 μM test compound solution.
HUVEC cells (ATCC: CRL-1730, Lot: 70041472) were cultured in F-12K medium supplemented with 10% FBS, 0.1 mg/mL heparin, 30 mg/mL Endothelial Cell Growth Supplement (ECGS, Corning), and 1% Penicillin/Streptomycin. The HUVEC cells seeded in a 24 well plate at 50,000 cells/well/i mL were cultured for 24 hours, and then 1 μL of DMSO or a test compound solution was added thereto and treatment was performed for 24 hours. Cells were harvested and lysed for 20 minutes on ice using lysis buffer (Cell Signaling Technology, Cat #9803) supplemented with protease inhibitor cocktail (Sigma, Cat #P8340; Roche, Cat #P11873580001), and phosphatase inhibitor cocktail (Sigma, Cat #P5726, P0044). The lysate was sonicated (15 seconds, amplitude 30%, 1 cycle) and then centrifuged at 12500 rpm for 15 minutes at 4 °C. The protein concentration was determined by BCA assay kit (Thermo Fisher Scientific, Cat #23225).
The western blotting was performed using Simple Western JESS (protein simple). A cell lysis sample (protein amount; about 1.06 μg) was loaded on a plate of Simple Western JESS, and the expression level of ROCK2 protein was detected using a 12-230 kDa Wes Separation Module (Protein simple, Cat #SM-W004), an Anti-Rabbit Detection Module for Wes (Protein simple, Cat #DM-001), and a Total Protein Detection Module for Wes (Protein simple, Cat #DM-TP01). As the primary antibody, a material obtained by diluting ROCK2 (D1B1) Rabbit mAb (Cell Signaling Technology, Cat #9029) at 1:10 was used, and as the secondary antibody, a material obtained by diluting HRP-labeled anti-rabbit IgG antibody (Cell Signaling Technology, Cat #7074S) at 1:100 was used. The expression level of the target protein was standardized using the total protein amount loaded as a reference. The standardized expression level data of the control (DMSO) was taken as 100%, and the degradation rate (%) was calculated from the average standardized expression level data of the test compound. All analysis steps, such as data detection and analysis, are fully automated.
With respect to the ROCK2 protein degradation rate of the test compound, the protein degradation rates (%) at the evaluation concentrations were set to A≥75%, 75%>B≥50%, 50%>C≥25%, and D<25%, and are shown in Table 7.

Structure (SMILES)	ROCK2 protein degradation rate
COC[C@H]1CN[C@H](C)CN1CC(=O)N1CC(C)(C)c2nc(CN(C)CCOCCNC[C@@H](C(=O)Nc3ccc4cnccc4c3)c3ccccc3)c(Cc3ccc(F)cc3)cc21	C (50%>C≥25%)
COC[C@H]1CN[C@H](C)CN1CC(=O)N1CC(C)(C)c2ncc(Cc3ccccc3OCCOCCOCCOCCNC[C@@H](C(=O)Nc3ccc4cnccc4c3)c3ccccc3)cc21	B (75%>B≥50%)
COC[C@H]1CN[C@H](C)CN1CC(=O)N1CC(C)(C)c2ncc(Cc3cccc(OCCOCCOCCOCCOCCOCCOCCN[C@H](C)c4ccc(C(=O)Nc5ccncc5)cc4)c3)cc21	B/B (75%>B≥50%)
COC[C@H]1CN[C@H](C)CN1CC(=O)N1CC(C)(C)c2ncc(Cc3cccc(OCCOCCOCCOCCOCCOCCOCCOCCN[C@H](Cc4cccc(F)c4)C(=O)Nc4ccc(-c5ccncc5)cc4)c3)cc21	B/B (75%>B≥50%)
COC[C@H]1CN[C@H](C)CN1CC(=O)N1CC(C)(C)c2nc(CN(C)CCOCCOCCOCCN[C@H](Cc3cccc(F)c3)C(=O)Nc3ccc(-c4ccncc4)cc3)c(Cc3ccc(F)cc3)cc21	B/B (75%>B≥50%)
C[C@@H]1CN(CC(=O)N2CC(C)(C)c3ncc(Cc4ccc(F)cc4)cc32)[C@@H](CN(C)CCOCCOCCOCCOCCOCCOCCOCCNC[C@@H](C(=O)Nc2ccc3cnccc3c2)c2ccccc2)CN1	C (50%>C≥25%)
C[C@@H]1CN(CC(=O)N2CC(C)(C)c3ncc(Cc4ccc(F)cc4)cc32)[C@@H](CN(C)CCOCCOCCNC[C@@H](C(=O)Nc2ccc3cnccc3c2)c2ccccc2)CN1	C (50%>C≥25%)
COC[C@H]1CN[C@H](C)CN1CC(=O)N1CC(C)(C)c2nc(CN(C)CCOCCOCCOCCN[C@H](C)c3ccc(C(=O)Nc4ccncc4)cc3)c(Cc3ccc(F)cc3)cc21	A (A≥75%)
C[C@@H]1CN(CC(=O)N2CC(C)(C)c3ncc(Cc4ccc(F)cc4)cc32)[C@@H](CN(C)CCOCCOCCN[C@H](Cc2cccc(F)c2)C(=O)Nc2ccc(-c3ccncc3)cc2)CN1	D (D<25%)

same assay, conditions: at 10 μm, 24 hours

Structure (SMILES)	ROCK2 protein degradation rate
COC[C@H]1CN[C@H](C)CN1CC(=O)N1CC(C)(C)c2nc(CN(C)CCOCCNC[C@@H](C(=O)Nc3ccc4cnccc4c3)c3ccccc3)c(Cc3ccc(F)cc3)cc21	A (A≥75%)
COC[C@H]1CN[C@H](C)CN1CC(=O)N1CC(C)(C)c2ncc(Cc3ccccc3OCCOCCOCCOCCNC[C@@H](C(=O)Nc3ccc4cnccc4c3)c3ccccc3)cc21	A (A≥75%)
COC[C@H]1CN[C@H](C)CN1CC(=O)N1CC(C)(C)c2ncc(Cc3cccc(OCCOCCOCCOCCOCCOCCOCCN[C@H](C)c4ccc(C(=O)Nc5ccncc5)cc4)c3)cc21	B/B (75%>B≥50%)
COC[C@H]1CN[C@H](C)CN1CC(=O)N1CC(C)(C)c2ncc(Cc3cccc(OCCOCCOCCOCCOCCOCCOCCOCCN[C@H](Cc4cccc(F)c4)C(=O)Nc4ccc(-c5ccncc5)cc4)c3)cc21	B/B (75%>B≥50%)
COC[C@H]1CN[C@H](C)CN1CC(=O)N1CC(C)(C)c2nc(CN(C)CCOCCOCCOCCN[C@H](Cc3cccc(F)c3)C(=O)Nc3ccc(-c4ccncc4)cc3)c(Cc3ccc(F)cc3)cc21	B/B (75%>B≥50%)
C[C@@H]1CN(CC(=O)N2CC(C)(C)c3ncc(Cc4ccc(F)cc4)cc32)[C@@H](CN(C)CCOCCOCCOCCOCCOCCOCCOCCNC[C@@H](C(=O)Nc2ccc3cnccc3c2)c2ccccc2)CN1	B (75%>B≥50%)
C[C@@H]1CN(CC(=O)N2CC(C)(C)c3ncc(Cc4ccc(F)cc4)cc32)[C@@H](CN(C)CCOCCOCCNC[C@@H](C(=O)Nc2ccc3cnccc3c2)c2ccccc2)CN1	A (A≥75%)
C[C@@H]1CN(CC(=O)N2CC(C)(C)c3ncc(Cc4ccc(F)cc4)cc32)[C@@H](CN(C)CCOCCOCCOCCN[C@H](C)c2ccc(C(=O)Nc3ccncc3)cc2)CN1	A (A≥75%)
COC[C@H]1CN[C@H](C)CN1CC(=O)N1CC(C)(C)c2nc(CN(C)CCOCCOCCOCCN[C@H](C)c3ccc(C(=O)Nc4ccncc4)cc3)c(Cc3ccc(F)cc3)cc21	B (75%>B≥50%)
C[C@@H]1CN(CC(=O)N2CC(C)(C)c3ncc(Cc4ccc(F)cc4)cc32)[C@@H](CN(C)CCOCCOCCN[C@H](Cc2cccc(F)c2)C(=O)Nc2ccc(-c3ccncc3)cc2)CN1	A (A≥75%)
